Experimental data as given in patent US10030026B2, “Difluoroethylpyridine derivatives as NR2B NMDA receptor antagonists” (Rugen Holdings (Cayman) Limited, priority 2014, dated 2018).
pIC50: −log10 of the molar value. Like-named read-outs stand apart in the source and are kept apart here.

Sequences of proteins named here, by UniProt entry; tags and fusion partners are left off. A change or cut given only in a name is not applied to a line headed by its entry. Residues count along the entry.
UniProt Q13224, 27-1484: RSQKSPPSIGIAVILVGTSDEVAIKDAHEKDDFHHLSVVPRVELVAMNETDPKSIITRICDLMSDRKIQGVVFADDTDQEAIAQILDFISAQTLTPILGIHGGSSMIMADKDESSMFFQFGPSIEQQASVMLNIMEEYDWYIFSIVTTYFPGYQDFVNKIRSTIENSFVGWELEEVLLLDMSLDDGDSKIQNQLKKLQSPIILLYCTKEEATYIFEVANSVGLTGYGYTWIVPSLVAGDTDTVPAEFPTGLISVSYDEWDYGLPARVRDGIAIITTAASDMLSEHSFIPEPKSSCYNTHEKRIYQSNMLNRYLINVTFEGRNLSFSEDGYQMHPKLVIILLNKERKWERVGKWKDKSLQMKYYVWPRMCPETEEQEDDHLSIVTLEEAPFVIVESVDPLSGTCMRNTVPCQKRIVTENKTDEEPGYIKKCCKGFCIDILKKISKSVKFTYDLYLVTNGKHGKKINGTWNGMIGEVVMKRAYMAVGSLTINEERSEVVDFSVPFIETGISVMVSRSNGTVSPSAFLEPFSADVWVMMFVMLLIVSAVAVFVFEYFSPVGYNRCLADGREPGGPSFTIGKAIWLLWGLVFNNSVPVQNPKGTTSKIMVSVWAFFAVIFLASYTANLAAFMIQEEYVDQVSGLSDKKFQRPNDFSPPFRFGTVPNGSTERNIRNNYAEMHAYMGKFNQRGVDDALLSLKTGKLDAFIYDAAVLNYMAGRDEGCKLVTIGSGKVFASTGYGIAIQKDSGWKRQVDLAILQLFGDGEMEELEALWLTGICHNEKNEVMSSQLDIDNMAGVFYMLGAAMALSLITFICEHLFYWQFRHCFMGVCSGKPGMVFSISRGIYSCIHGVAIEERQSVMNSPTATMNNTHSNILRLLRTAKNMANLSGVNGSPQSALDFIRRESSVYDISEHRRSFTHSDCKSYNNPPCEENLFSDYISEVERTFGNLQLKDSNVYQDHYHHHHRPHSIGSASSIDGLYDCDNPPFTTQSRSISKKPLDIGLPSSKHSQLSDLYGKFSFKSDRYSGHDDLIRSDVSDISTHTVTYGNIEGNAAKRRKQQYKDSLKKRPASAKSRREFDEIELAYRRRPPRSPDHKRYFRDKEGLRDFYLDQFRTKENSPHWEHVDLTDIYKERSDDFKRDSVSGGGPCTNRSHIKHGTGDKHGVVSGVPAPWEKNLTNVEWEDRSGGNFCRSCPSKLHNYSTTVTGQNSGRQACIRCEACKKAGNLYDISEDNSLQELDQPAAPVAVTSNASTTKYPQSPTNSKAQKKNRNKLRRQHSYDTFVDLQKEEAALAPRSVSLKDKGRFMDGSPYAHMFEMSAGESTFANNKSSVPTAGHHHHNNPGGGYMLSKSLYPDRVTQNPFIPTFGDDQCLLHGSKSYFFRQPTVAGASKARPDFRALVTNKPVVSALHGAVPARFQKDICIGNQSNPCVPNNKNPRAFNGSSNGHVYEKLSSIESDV
UniProt Q12879, 23-1464: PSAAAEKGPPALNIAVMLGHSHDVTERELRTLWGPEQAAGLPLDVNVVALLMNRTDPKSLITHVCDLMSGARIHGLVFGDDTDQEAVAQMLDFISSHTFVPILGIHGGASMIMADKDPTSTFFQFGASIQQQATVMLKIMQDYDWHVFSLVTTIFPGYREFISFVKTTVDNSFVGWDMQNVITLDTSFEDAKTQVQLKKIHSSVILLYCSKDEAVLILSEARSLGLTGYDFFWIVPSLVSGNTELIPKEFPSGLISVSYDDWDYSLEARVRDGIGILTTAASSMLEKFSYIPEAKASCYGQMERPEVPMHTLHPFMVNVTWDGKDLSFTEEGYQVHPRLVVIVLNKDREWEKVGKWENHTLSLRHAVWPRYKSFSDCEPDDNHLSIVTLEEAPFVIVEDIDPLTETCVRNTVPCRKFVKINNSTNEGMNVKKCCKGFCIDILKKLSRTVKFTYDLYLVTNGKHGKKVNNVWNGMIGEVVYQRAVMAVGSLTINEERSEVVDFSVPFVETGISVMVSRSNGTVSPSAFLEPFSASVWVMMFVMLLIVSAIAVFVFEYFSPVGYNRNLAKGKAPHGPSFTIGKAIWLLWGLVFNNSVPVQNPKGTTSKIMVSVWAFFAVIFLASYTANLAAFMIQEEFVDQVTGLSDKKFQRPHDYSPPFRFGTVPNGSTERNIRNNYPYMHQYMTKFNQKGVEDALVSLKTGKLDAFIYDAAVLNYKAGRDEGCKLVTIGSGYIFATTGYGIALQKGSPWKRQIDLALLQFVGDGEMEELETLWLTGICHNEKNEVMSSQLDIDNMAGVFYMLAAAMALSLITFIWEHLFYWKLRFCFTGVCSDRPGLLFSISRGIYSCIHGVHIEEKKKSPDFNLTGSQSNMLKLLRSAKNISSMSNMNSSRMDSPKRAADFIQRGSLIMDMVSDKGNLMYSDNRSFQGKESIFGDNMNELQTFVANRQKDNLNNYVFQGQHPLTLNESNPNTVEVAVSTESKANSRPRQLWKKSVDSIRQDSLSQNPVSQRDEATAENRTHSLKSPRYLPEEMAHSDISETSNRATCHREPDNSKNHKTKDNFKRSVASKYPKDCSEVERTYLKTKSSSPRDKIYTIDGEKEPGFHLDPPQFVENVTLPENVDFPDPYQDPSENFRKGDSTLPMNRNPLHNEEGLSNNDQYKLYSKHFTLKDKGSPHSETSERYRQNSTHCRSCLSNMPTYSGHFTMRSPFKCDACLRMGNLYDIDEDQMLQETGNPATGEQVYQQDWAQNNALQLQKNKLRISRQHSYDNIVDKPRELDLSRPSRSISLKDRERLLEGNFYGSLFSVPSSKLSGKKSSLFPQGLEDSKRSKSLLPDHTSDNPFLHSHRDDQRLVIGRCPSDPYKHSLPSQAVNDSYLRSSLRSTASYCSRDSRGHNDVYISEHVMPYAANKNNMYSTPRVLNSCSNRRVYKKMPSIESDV
UniProt Q12809: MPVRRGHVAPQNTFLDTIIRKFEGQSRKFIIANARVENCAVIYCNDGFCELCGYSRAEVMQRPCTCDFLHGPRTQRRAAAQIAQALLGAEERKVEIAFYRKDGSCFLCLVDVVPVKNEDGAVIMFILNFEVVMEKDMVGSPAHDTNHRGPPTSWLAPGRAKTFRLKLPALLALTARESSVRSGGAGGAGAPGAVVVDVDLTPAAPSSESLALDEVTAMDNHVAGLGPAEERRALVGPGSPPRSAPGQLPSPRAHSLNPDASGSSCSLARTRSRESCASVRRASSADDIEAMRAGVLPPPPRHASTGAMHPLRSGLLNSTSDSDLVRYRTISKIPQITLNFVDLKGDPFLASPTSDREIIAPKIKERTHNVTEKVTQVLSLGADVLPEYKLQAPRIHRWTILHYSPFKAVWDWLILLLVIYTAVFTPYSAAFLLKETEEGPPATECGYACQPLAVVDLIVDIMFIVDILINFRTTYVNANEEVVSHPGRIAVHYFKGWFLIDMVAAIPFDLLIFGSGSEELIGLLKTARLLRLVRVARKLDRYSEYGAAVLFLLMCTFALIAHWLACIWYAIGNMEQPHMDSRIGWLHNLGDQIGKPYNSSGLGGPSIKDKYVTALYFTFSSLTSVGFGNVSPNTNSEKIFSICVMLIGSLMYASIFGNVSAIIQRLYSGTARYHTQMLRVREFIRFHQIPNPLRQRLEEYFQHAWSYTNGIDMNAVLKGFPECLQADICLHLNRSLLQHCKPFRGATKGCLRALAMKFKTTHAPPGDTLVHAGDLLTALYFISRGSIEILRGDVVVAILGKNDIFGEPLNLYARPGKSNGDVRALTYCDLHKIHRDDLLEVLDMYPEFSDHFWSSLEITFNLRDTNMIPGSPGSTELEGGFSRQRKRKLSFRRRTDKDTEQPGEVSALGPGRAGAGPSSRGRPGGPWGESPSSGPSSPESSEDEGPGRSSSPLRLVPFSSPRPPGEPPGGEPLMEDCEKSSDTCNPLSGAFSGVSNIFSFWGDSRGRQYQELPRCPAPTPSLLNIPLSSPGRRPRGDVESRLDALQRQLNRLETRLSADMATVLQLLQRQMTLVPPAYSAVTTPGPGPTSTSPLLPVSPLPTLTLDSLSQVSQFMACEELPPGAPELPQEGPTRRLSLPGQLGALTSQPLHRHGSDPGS
UniProt P10635, whole entry: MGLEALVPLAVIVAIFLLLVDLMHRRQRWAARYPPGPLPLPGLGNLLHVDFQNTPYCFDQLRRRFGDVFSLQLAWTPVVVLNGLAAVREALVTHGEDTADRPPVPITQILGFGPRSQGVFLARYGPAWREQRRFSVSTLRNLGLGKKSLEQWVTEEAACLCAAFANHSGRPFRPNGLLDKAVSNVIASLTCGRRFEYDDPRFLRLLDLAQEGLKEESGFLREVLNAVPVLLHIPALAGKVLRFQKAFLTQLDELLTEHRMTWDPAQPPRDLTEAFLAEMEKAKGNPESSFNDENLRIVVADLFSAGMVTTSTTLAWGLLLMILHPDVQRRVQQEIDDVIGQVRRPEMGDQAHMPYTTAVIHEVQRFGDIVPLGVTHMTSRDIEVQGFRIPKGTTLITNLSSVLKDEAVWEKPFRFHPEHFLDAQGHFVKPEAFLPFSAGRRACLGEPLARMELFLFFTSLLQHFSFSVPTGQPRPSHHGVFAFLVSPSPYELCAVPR

Experiments:
[1] = biological target: human NR1/NR2B (Homo sapiens (Human), UniProt Q13224); assay: NR2B antagonist activity, Fluo-4 calcium influx assay in HEK293 cells; assay type: cell-based; conditions: HEK293 cells stably expressing NR2B; glutamate 100 μM, glycine 50 μM
Experimental: (§1) Activation of the NR2A or NR2B subtype of NMDA receptor with glutamate as an agonist and glycine co-agonist on these cells results in calcium influx, which can be monitored with fluorescent indicator Fluo-4.
(§2) For experiments, the cells were seeded onto poly-D-lysine-coated 96-well black plates with clear bottom (Corning) at a density of ˜50,000 cells/well. After overnight culture, the growth medium was removed from the wells and the cells were incubated at 37° C. for 60 min in Hanks buffer containing 4 μM fluo-4-AM (Invitrogen) and 0.1% bovine serum albumin (BSA). After dye-loading, the cells were washed three times with Hanks buffer and incubated for 10 min at room temperature with various concentrations of test compounds prepared in Hanks buffer with 0.1% BSA. The cell plates were placed onto FDSS μCell fluorescence reader (Hamamatsu). After 20 sec reading of background fluorescence, agonist glutamate at final 100 μM and co-agonist glycine at final 50 μM were added to the cells to activate the receptor, and the resulting fluorescence changes were recorded and quantified.

[2] = biological target: human NR1/NR2A (Homo sapiens (Human), UniProt Q05586+Q12879); assay: NR2A antagonist activity, Fluo-4 calcium influx assay in HEK293 cells; assay type: cell-based
Experimental: as §1, §2

[3] = biological target: hERG channel (Homo sapiens (Human), UniProt Q12809); assay: hERG channel inhibition, whole cell patch clamp in HEK293 cells; assay type: cell-based; conditions: hERG stably expressed in HEK293 cells
[4] = biological target: CYP2D6 (Homo sapiens (Human), UniProt P10635); assay: CYP P450 enzyme inhibition in pooled human liver microsome

| pIC50 [1] | pIC50 [2] | pIC50 ([2]; HEK293 cells stably expressing NR2A, glutamate 100 μM, glycine 50 μM, read-out: NR2A IC50) | SMILES | pIC50 [3] | pIC50 [4] |
| --- | --- | --- | --- | --- | --- |
| 7.55 | < 5.00 |  | FC(F)(F)Oc1ccc(C(F)(F)CN2CCC(Nc3ncnc4[nH]ncc34)CC2)nc1 [C-11] |  |  |
| 7.05 |  | < 5.00 | Cc1n[nH]c2ncnc(NC3CCN(CC(F)(F)c4ccc(C(F)(F)F)nc4)CC3)c12 [C-142, N-(1-(2,2-difluoro-2-(6-(trifluoromethyl)pyridin-3-yl)ethyl)piperidin-4-yl)-3-methyl-1H-pyrazolo[3,4-d]pyrimidin-4-amine] |  |  |
|  |  |  | Fc1cc(C(F)(F)F)cnc1C(F)(F)CN1CCC(Nc2ncnc3[nH]ncc23)CC1 [C-18, N-(1-(2,2-difluoro-2-(3-fluoro-5-(trifluoromethyl)pyridin-2-yl)-ethyl)piperidin-4-yl)-1H-pyrazolo[3,4-d]pyrimidin-4-amine] | 4.92 | 4.94 |
